Target: Cp149 reassembled capsids (Hepatitis B virus genotype D subtype ayw, UniProt P03146)
Format: binding, Hepatitis B virus (HBV)
Settings: ITC, 50 mM HEPES pH 7.5, 298 K

The chains behind the UniProt entries cited, without tags or fusion partners. Residues count along the entry.
UniProt P03146, 1-149: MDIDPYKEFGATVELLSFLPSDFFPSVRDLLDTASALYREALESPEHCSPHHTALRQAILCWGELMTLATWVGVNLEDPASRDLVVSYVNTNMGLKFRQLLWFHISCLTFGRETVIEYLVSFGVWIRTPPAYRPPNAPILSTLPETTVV

Substance: NP40 [Compound 6g]
- Kd: 68 ± 7 µM

Reference: publication PMC9358932 (Chemical Science, 2022)
